From PubChem
The list is not random: actives were taken first. Their share in the collection is about 2.2%.
A549 tox – kills or reduces viability of A549 cells in Nrf2 counter-screen; Potency, µM (series often up to 46 µM), usual class: inhibitors; AID 504648; 0.16% of 390,000 active; A549 ARE-Fluc cells, CellTiter-Fluor viability, 18-24 h
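A549 ARE_Fluc cells in 5% FBS OPTI-MEM were exposed to compounds in concentration-response for 18-24 h at 37 deg C. Viability was read by CellTiter-Fluor fluorescence (Ex 405/Em 525) after 30 min, before the luciferase read.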
miR-21 reporter – raises the signal of a miR-21 reporter; Potency, µM (doses to about 38.3 µM); HeLa miR-21 FLuc reporter, luciferase, 48 h; AID 2288; 340,000 tested, under 10 active; active = well fitted rising curve with a large enough effect; inconclusive = small, poorly fitted or top-dose-only effect; inactive = no such curve, though single readings can be large or run the other way;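 further: miR-21 action dims this reporter so a rising signal means less miR-21 action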
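Compounds were titrated across several concentrations (up to approximately 40 uM) and incubated 48 hours with HeLa miR-21-FLuc reporter cells (miR-21 target sequence downstream of FLuc, endogenous miR-21). Readout was firefly luciferase luminescence after lytic detection reagent.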
Nrf2 activator – Nrf2 pathway activation. Potency, µM (titrated, usually from 46.1 µM), most hits filed as activators. AREc32 ARE-luciferase reporter (MCF7-derived line), luminescence, 24 h. AID 624171. 0.31% of 410,000 active; note: nearly all actives have a fitted effect of over 65% in size
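Cells of the AREc32 ARE-luciferase line are plated in OPTI-MEM containing 5% FBS and left overnight at 37 deg C. Compounds are pinned in, incubation continues 24 hr, and firefly luciferase signal is then measured.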
B2AR arrestin – recruits beta-arrestin to the human beta2-adrenergic receptor. P07550. beta-arrestin recruitment to beta2AR, cell-based reporter. Potency, µM (doses to about 46.1 µM), most hits filed as activators. 0.02% of 330,000 active; note: nearly all actives have a fitted effect of over 65% in size
Nrf2 inh – Nrf2 pathway inhibition; 2.1% of 360,000 active; A549 ARE-Fluc reporter, luciferase luminescence, 18-24 h; Potency, µM (highest dose often 46 µM), usual class: inhibitors; note: nearly all actives have a fitted effect of over 60% in size
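Concentration-response testing used A549 ARE_Fluc cells at 5000 cells/well. Following an 18-24 h compound incubation, viability was read by fluorescence (Ex 405/Em 525) and luciferase output by luminescence.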
Hits are given with their value; . = inactive; ? = inconclusive; / = no result; [ ] = another dose, or the depositor's remark. Unless noted, calls come from the whole dose curve; as a rule, active = well fitted curve in the direction sought with a large enough effect; inconclusive = small, poorly fitted or top-dose-only effect, or another doubt; inactive = no such curve, though single readings can be large; an effect the other way counts as inactive or inconclusive.

SMILES	A549 tox	miR-21 reporter	Nrf2 activator	B2AR arrestin	Nrf2 inh
COc1cc(SC)ccc1C(=O)Nc1cccc(C)n1	.	.	.	.	?
CC[C@H](C)Cc1cn([C@@H](CCCCNC(=O)OC(C)(C)C)C(=O)NCCCCCCCCCCC(=O)N2CCN(C(=O)OC(C)(C)C)CC2)nn1	?	/	.	.	10µM
O=C(CNC(=O)C(c1ccccc1)c1ccccc1)OCC(=O)c1ccc2ccccc2c1	.	/	/	/	.
COc1ccc(NC(=O)CCn2nc(-c3ccccc3OC)c3c(C)cc(C)nc32)cc1	.	.	.	/	.
CCOc1ccc(N2CC(c3nc4ccccc4n3CCOc3ccccc3)CC2=O)cc1 (stereo unspecified)	?	.	.	/	?
Cc1ccc(OCCn2c(C3CC(=O)N(Cc4ccc(F)cc4)C3)nc3ccccc32)c(C)c1 (stereo unspecified)	.	?	.	/	23µM
Cc1ccc(OCCCn2c(C3CC(=O)N(c4cccc(Cl)c4)C3)nc3ccccc32)c(C)c1 (stereo unspecified)	.	.	.	/	.
CCc1ccc(OCCn2c(C3CC(=O)N(Cc4ccc(F)cc4)C3)nc3ccccc32)cc1 (stereo unspecified)	.	.	.	/	15µM
CCOc1ccc(-c2nnc(SCC(=O)NCc3ccccc3)nc2-c2ccc(OCC)c(OC)c2)cc1OC	.	?	.	/	/
Cc1ccc(C(=O)c2sc(Nc3ccccc3F)c(S(=O)(=O)c3ccccc3)c2N)c(C)c1	.	.	.	/	/
COc1ccc(NS(=O)(=O)c2ccc(NC(=O)c3ccc(Br)cc3)cc2)nn1	.	.	.	.	21µM
Cc1ccc(-c2nnc(N3CCN(C(=O)COc4ccccc4)CC3)c3ccccc23)cc1	?	.	.	.	18µM
O=C(COc1ccc(-c2nnc(N3CCCCC3)c3ccccc23)cc1)N1CCCCC1	.	.	.	.	?
O=C(COc1ccc([N+](=O)[O-])cc1)N1CCN(c2nnc(-c3ccccc3)c3ccccc23)CC1	.	.	.	.	23µM
COc1ccc(S(=O)(=O)Nc2cc(C(=O)NC3CCCCCC3)ccc2N2CCOCC2)cc1	.[1.84 µM]	.	.	.	18µM
O=C1NC(=Nc2ccccc2)S/C1=C\C=C\c1ccco1	?	.	7.1µM	.	.
O=C1S/C(=C\C=C\c2ccco2)C(=O)N1c1ccccc1	.	.	8.9µM	.	.
O=C1S/C(=C\C=C\c2ccco2)C(=O)N1c1ccc(O)cc1	?	.	?	.	.
Cc1ccc(N=C2NC(=O)/C(=C/C=C/c3ccco3)S2)cc1	?	.	2.5µM	?	.
Cc1cccc(N=C2NC(=O)/C(=C/C=C/c3ccco3)S2)c1C	?	.	?	.	.
CCOc1ccccc1N(C)C(=O)c1c2c(nc3ccccc13)C(=O)N(C1CCCCC1)C2	.	.	.	/	.
CC(C)S(=O)(=O)c1oc(-c2cccs2)nc1S(=O)(=O)c1ccc(F)cc1	?	?	.	/	18µM
CN(C)C(CNC(=O)c1cc(S(=O)(=O)N(C)Cc2ccccc2)ccc1Cl)c1ccco1 (stereo unspecified)	.	/	.	.	15µM
CN(C)C(CNC(=O)c1cc(Br)ccc1Cl)c1ccco1 (stereo unspecified)	.	.	.	.	.
Cc1ccc(NC(=O)c2nnn(CC(=O)Nc3ccc(C)c(Cl)c3)c2N)c(C)c1	.	.	.	/	?
SMILES	A549 tox	miR-21 reporter	Nrf2 activator	B2AR arrestin	Nrf2 inh
COc1ccccc1N=Nc1nc(-c2ccccc2)c(-c2ccccc2)[nH]1	?	.	.	.	18µM
COc1ccc(N=Nc2nc(-c3ccccc3)c(-c3ccccc3)[nH]2)cc1	?	.	.	.	.
COC(=O)c1nc(N2CCN(S(=O)(=O)c3ccc(C)cc3)CC2)c2ccccc2n1	.	/	/	/	.
O=S(=O)(c1ccc(F)cc1)N1CCN(c2nc(-c3ccc(F)cc3)nc3cc(Cl)ccc23)CC1	.	/	/	/	.
O=C(/C=C/c1ccc(F)cc1)NC(=S)Nc1ccccc1C(=O)NC1CCCCC1	.	.	.	.	.
O=C(/C=C/c1ccc(F)cc1)NC(=S)NC1CCCCC1	.	.	.	.	12µM
COc1ccc(C(C)=O)cc1CSc1nnc(Nc2ccccc2)s1	.	.	.	.	23µM
COc1ccc(C(C)=O)cc1CSc1nnc(Nc2ccc(C)cc2)s1	.	.	.	.	?
